Test results taken from PubChem BioAssay AID652163 (Broad Institute, 2013).
Only a part is listed here, and it is no random draw. Some results for these compounds are left out of this collection, so the calls shown say nothing about other tests. The source made the active and inactive calls.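 Rule for the calls: active = mean inhibition of at least 70% across replicates, with every replicate also reaching that level; inconclusive = mean inhibition reaches 70% but some replicates fall short; inactive = mean inhibition below 70%.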

Protein sequences, listed by entry. Tags and fused reporters are not part of them.
UniProt P26447, whole entry: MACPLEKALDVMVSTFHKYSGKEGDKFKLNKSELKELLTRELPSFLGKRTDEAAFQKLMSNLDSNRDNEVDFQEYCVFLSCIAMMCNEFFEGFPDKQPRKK

Molecular target: Protein S100-A4 (Homo sapiens) (UniProt P26447)
Experiment: inhibitors of S100A4-myosin IIA peptide binding, primary screen, biochemical, fluorescence polarization, TAMRA-MyoIIA peptide (AID 652163)
Settings: at 10.7 µM, stronger effect = higher value
How it was run: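 Material: S100A4 monomer (human). Medium: Calcium-containing HEPES buffer, pH 7.2. Probe or stimulus: labelled myosin peptide probe, 5 nM. Compound dosing: one concentration per compound. Timing: polarization read 5 min after assay mix addition, stable 5–60 min. Benchmarks: DMSO as neutral control, TFP as positive control.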

Structure (SMILES) | inhibition
O=C(OCCN1CCCC1)C(O)(c1ccccc1)c1ccccc1 | inactive: 2.88%
CC(C)Oc1ccc(C(=O)NCC2(N(C)C)CCCCC2)cc1 | inactive: -15.5%
COc1ccc(Br)c(C(=O)NCC2(N3CCCCC3)CCCCC2)c1 | inactive: -40.8%
C=C(C)C#CC(O)(C(=O)OC1CCN(C)CC1)c1ccccc1 (configuration not stated) | inactive: 0.316%
COc1cc(C(=O)NCC2(N(C)C)CCCCC2)c([N+](=O)[O-])cc1OC | inactive: 3.92%
CN(C)C1(CNC(=O)c2ccc(Br)cc2)CCCCC1 | inactive: -4.86%
O=C(NCC1(N2CCCCC2)CCCCC1)c1cccc(Cl)c1 | inactive: -24.4%
COc1ccc(Cl)cc1C(=O)NCC1(N(C)C)CCCCC1 | inactive: -4.86%
COc1cccc(C(=O)NCC2(N3CCCCC3)CCCCC2)c1 | inactive: -8.6%
CN(C)C1CCCC1OC(=O)C(O)(c1ccccc1)c1ccccc1 (configuration not stated) | inactive: -3.14%
CN(C)c1ccc(C(=O)NCC2(N(C)C)CCCCC2)cc1 | inactive: -15.4%
Cc1ccccc1C(=O)NCC1(N2CCCCC2)CCCCC1 | inactive: -3.3%
O=C(NCC1(N2CCCCC2)CCCCC1)c1cccc(Br)c1 | inactive: -5.41%
Cc1cc(C(=O)NCC2(N3CCCCC3)CCCCC2)ccc1[N+](=O)[O-] | inactive: -2.3%
COc1ccc(C(=O)NCC2(N(C)C)CCCCC2)cc1 | inactive: 1.26%
O=C(NCC1(N2CCCCC2)CCCCC1)c1cc(F)c(F)cc1Cl | inactive: -8.48%
C=CCN1CCN(CCOC(=O)C(O)(c2ccccc2)c2ccccc2)CC1 | inactive: 1.39%
CN1[C@@H]2CC[C@H]1CC(OC(=O)C(O)(c1ccccc1)c1ccccc1)C2 (some centres not stated) | inactive: -5.41%
O=C(NCC1(N2CCCCC2)CCCCC1)c1cc([N+](=O)[O-])ccc1Cl | inactive: -6.8%
Cc1ccc(C(=O)NCC2(N3CCCCC3)CCCCC2)cc1 | inactive: -8.1%
COc1cc(SC)ccc1C(=O)NCC1(N(C)C)CCCCC1 | inactive: -3.06%
CCN(CC)CC(C)C(C)OC(=O)C(O)(c1ccccc1)c1ccccc1 (configuration not stated) | inactive: -1.53%
